# Results as given in PubChem BioAssay AID624415 (National Center for Advancing Translational Sciences (NCATS), 2012).
# By UniProt entry, the sequences of proteins in these tests, tags left out.
# UniProt Q9GZU1, whole entry: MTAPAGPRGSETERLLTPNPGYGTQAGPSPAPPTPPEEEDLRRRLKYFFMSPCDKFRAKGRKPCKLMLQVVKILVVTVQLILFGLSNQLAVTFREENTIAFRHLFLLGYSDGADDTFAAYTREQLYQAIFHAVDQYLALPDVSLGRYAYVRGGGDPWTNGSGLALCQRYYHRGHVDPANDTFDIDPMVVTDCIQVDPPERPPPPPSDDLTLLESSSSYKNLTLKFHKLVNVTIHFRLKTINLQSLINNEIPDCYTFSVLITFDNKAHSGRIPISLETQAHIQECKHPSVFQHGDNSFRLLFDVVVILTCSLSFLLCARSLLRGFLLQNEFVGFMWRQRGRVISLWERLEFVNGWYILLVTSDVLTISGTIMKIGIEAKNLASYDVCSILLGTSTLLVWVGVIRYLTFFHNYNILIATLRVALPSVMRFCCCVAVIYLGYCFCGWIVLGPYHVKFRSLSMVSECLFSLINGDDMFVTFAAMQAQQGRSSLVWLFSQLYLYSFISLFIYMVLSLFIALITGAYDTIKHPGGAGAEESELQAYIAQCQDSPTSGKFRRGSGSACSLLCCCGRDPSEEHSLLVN
# Values joined by “and” are separate entries in the source; they are usually repeats but may differ in a detail not shown here. Equal values may be shown once. The list shows a part of the results, in another mix than the full data. Some results for these compounds are left out of this collection, so the calls shown say nothing about other tests. Active and inactive are the calls of the source. Cut-off read from the data, not from the text of the source: active = activity change below about -50%; inconclusive = between about -30% and that limit; inactive = weaker than that.
# Target: Mucolipin-1 (Homo sapiens) (UniProt Q9GZU1)
# Assay: qHTS for Inhibitors of the Human Mucolipin Transient Receptor Potential 1 (TRPML1);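 note: stimulus is agonist 54-4 at its EC80 concentration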
# Conditions: TRPML1-inducible cells, Ca2+ dye fluorescence, FDSS; hits give low values; inhibition of EC80 agonist-evoked calcium signal
# Text: Mutations of human Mucolipin transient receptor potential 1 (TRPML1) cause type IV mucolipidosis (ML4), a devastating neurodegenerative disease in young children. […] Currently, there is no treatment for ML4. […] Under physiological conditions, TRPMLs regulate membrane trafficking by transducing information about PI(3,5)P2 levels into changes in juxtaorganellar Ca2+, thereby triggering membrane fusion/fission events in the late endocytic pathways (endolysosomal trafficking). In addition, TRPML1 mediates release of Fe2+ from late endosomes and lysosomes, which is essential for cellular iron metabolism. Thus, impaired ion (Ca2+ and Fe2+) homeostasis underlies lysosomal dysfunction and ML4 phenotypes. In ML4 cells, the problem is twofold. First, defective Ca2+-dependent membrane trafficking due to TRPML1-deficiency causes accumulation of lipids and other bio-materials in the lysosome. The second strike comes from the lysosomal iron overload (due to impairment of TRPML1's Fe2+ conductivity), which converts the accumulated materials into the nondegradable (resistant to lysosomal degradation) lipofuscin (also called aging pigment) in the lysosome. Lipofuscin accumulation dramatically compromises the functions of lysosomes.
# Niemann-Pick type C (NPC) disease is another lysosome storage disease (LSD) with severe neurodegeneration during the childhood. Currently, there is no cure for NPC. […] Thus, TRPML1 is likely to be an essential regulator of lysosome ion homeostasis. We specifically hypothesize that stimulating TRPML1's Fe2+/Ca2+ channel activity in the lysosome using synthetic agonists can alleviate neurodegeneration associated with ML4 or NPC.
# To this end, a high throughput screen was developed in a miniaturized format to screen against the Molecular Libraries Small Molecule Repository (MLSMR) to find small molecules that act either as inhibitors or agonist against the TRPML1 channel.
# NIH Chemical Genomics Center [NCGC]
# NIH Molecular Libraries Probe Centers Network [MLPCN]
# Assay Submitter (PI): Haoxing Xu, University of Michigan Ann Arbor
# TRPML1-DL cells are dissociated from flasks, counted and, brought up to a density of 500,000 cells per mL of media containing a 1X Tet inducer. Using a Multidrop Combi, 3 uL of this cell solution is dispensed to each well of a 1536 TC treated, black, clear bottom hi base plate for a final cell density of 1,500 cells per well. The assay plates are incubated overnight (approximately 16 hours) at 37 degrees C and 5% CO2. Using a Multidrop Combi, 2 uL of ABD Ca8 no wash dye plus quencher is added to each well. The assay plates incubate at room temperature in the dark for 45-90 minutes. The assay plate is read on the FDSS using the following protocol: 10 second baseline read, 23 nL of compounds and controls are added using 1536 pintool, agonist read for 110 seconds, 1 uL EC80 addition (4 uM final 54-4 diluted in media), antagonist read for 110 seconds.
# % is set by controls: 0 for no effect and ±100 for the full control effect.
row,SMILES,"activity change, negative = inhibition"
1,COc1cc(C(=O)NCC2(N(C)C)CCCCC2)c([N+](=O)[O-])cc1OC,inactive: -20.5%
2,CN(C)C1(CNC(=O)c2ccc(Br)cc2)CCCCC1,inactive: -8.36%
3,O=C(NCC1(N2CCCCC2)CCCCC1)c1cccc(Cl)c1,inactive: -9.88%
4,COc1ccc(C(=O)NCC2(N(C)C)CCCCC2)cc1Cl,inactive: -10.6%
5,COc1ccc(Cl)cc1C(=O)NCC1(N(C)C)CCCCC1,inactive: 26.5%
6,COc1cccc(C(=O)NCC2(N3CCCCC3)CCCCC2)c1,inactive: 3.64%
7,CC(C)COc1ccc(C(=O)NCC2(N(C)C)CCCCC2)cc1,inactive: 2.6%
8,O=C(OC1CN2CCC1CC2)C(CO)(c1ccccc1)c1ccccc1 (stereo not given),inactive: 5.01%
9,COc1cccc(C(=O)NCC2(N3CCOCC3)CCCCC2)c1,inactive: -13.4%
10,CN(C)c1cccc(C(=O)NCC2(N(C)C)CCCCC2)c1,inactive: -8.24%
11,O=C(OCCN1CCCC1)C(O)(c1ccccc1)c1ccccc1,inactive: -0.0046%
12,CC(C)Oc1ccc(C(=O)NCC2(N(C)C)CCCCC2)cc1,inactive: 15.2% and inactive: -9.08%
13,COc1ccc(Br)c(C(=O)NCC2(N3CCCCC3)CCCCC2)c1,inactive: 25.2%
14,COc1cc(C(=O)NCC2(N(C)C)CCCCC2)cc(OC)c1OC,inactive: -15.3%
15,Cc1cccc(C(=O)NCC2(N(C)C)CCCCC2)c1,inactive: -2.91%
16,C=C(C)C#CC(O)(C(=O)OC1CCN(C)CC1)c1ccccc1 (stereo not given),inactive: -22.5%
17,CN1[C@@H]2CC[C@H]1CC(OC(=O)C(O)(c1ccccc1)c1ccccc1)C2 (stereo not given in full),inactive: 50.5%
18,O=C(NCC1(N2CCCCC2)CCCCC1)c1cc([N+](=O)[O-])ccc1Cl,inactive: -4.97%

row,SMILES,"activity change, negative = inhibition"
1,CN(C)C1(CNC(=O)c2ccccc2F)CCCCC1,inactive: 16.6%
2,Cc1ccc(C(=O)NCC2(N3CCCCC3)CCCCC2)cc1,inactive: -8.39%
3,CC(C)N1C(=O)CC2(CCN(CCOC(=O)C(O)(c3ccccc3)c3ccccc3)CC2)C1=O,inactive: 23.6%
4,CN(C)C1(CNC(=O)c2cccc(Cl)c2)CCCCC1,inactive: 18.5%
5,CCN(CC)CC(C)C(C)OC(=O)C(O)(c1ccccc1)c1ccccc1 (stereo not given),inactive: 12.7%
6,CCCCOc1ccccc1C(=O)NCC1(N(C)C)CCCCC1,inactive: -2.85%
7,CN(C)C1CCCC1OC(=O)C(O)(c1ccccc1)c1ccccc1 (stereo not given),inactive: -10.3%
8,CN(C)c1ccc(C(=O)NCC2(N(C)C)CCCCC2)cc1,inactive: -6.3%
9,CN(C)C1(CNC(=O)c2ccccc2[N+](=O)[O-])CCCCC1,inactive: -1.43%
10,Cc1ccccc1C(=O)NCC1(N2CCCCC2)CCCCC1,inactive: 17.3%
11,O=C(NCC1(N2CCCCC2)CCCCC1)c1cccc(Br)c1,inactive: -5.56%
12,Cc1cc(C(=O)NCC2(N3CCCCC3)CCCCC2)ccc1[N+](=O)[O-],inactive: 33.4%
13,CCN1CCCC(OC(=O)C2(O)c3ccccc3C=Cc3ccccc32)C1 (stereo not given),inactive: 1.27%
14,CCOc1cccc(C(=O)NCC2(N(C)C)CCCCC2)c1,inactive: 0.976%
15,COc1ccc(C(=O)NCC2(N(C)C)CCCCC2)cc1,inactive: -2%
16,O=C(NCC1(N2CCCCC2)CCCCC1)c1cc(F)c(F)cc1Cl,inactive: -11%
17,C=CCN1CCN(CCOC(=O)C(O)(c2ccccc2)c2ccccc2)CC1,inactive: -3.36%
